Consider one molecule from patent publication US20060004086A1, “Method of reducing Abeta42 and treating diseases” (Mayo Foundation for Medical Education and Research, priority 2000, published 2006).

For this assay, the system named is Aβ42 secretion. Kind of assay: Non-selective and selective COX-inhibitors tested for effect on Aβ42 levels in cell cultures (Table 1 summary). The note with it: effect up to the highest conc. tested listed per drug in Table 1. The assay is classed as cell-based.

The structures appear in SMILES notation.

In the case of `Cc1cnc(NC(=O)C2=C(O)c3ccccc3S(=O)(=O)N2C)s1` [Meloxicam], the Aβ42/Aβ40 ratio result was “no effect”.
